Assay results reported in patent publication US20020048571A1, “Chimeric polypeptides of serum albumin and uses related thereto” (priority 1999, published 2002).

Key:
[1] = system: bovine capillary endothelial cells (BCE); experiment: BCE proliferation assay with purified MSA-peptide fusion proteins (CyQUANT); assay type: cell-based; details: FGF-stimulated (1 ng/ml), 72 h
Text: (§1) Inhibition of BCE and HUVEC proliferation by serum albumin-EC binding peptide fusions. […] In the MSA-peptide fusions the peptide sequence was inserted into a cysteine constrained loop between amino acids 53 and 62. The proteins were produced by COS-7 cells that were transfected with expression plasmids that directed the synthesis and secretion of the particular recombinant protein. […] In MSA-1H5 and MSA-myc constructs (negative control), the peptides were inserted into the loop at amino acid glu57. FIGS. 6 and 7 show the inhibitory effect of the purified proteins on the proliferation of BCE and HUVEC cells that were stimulated by FGF.
The transfected COS7-L cells were cultured in defined serum-free media (VP-SFM). […] The concentration of the albumin proteins was determined by Western blot analysis of each preparation using a rabbit anti-MSA antibody and using purified MSA of known concentration to generate a standard curve. Following development of the blot and exposure to film the autoradiographs were analyzed using the Gel Doc 1000 image analysis system and Molecular Analyst software (BioRad). […]
After the 72 h incubation, the media was removed, and the plates were washed twice with PBS and frozen at −80° C. Proliferation of the BCE cells was assessed using the CyQUANT® cell proliferation assay kit according to the manufacturer's recommendations.

[2] = system: human umbilical vein endothelial cells (HUVECs); experiment: HUVEC proliferation assay with purified MSA-peptide fusion proteins; assay type: cell-based; details: FGF-stimulated
Text: as §1
The transfected COS7-L cells were cultured in defined serum-free media (VP-SFM). Each day for 5 days, the conditioned media were collected from the cells, centrifuged to remove dead cells and other cellular debris, and then frozen. […] The concentration of the albumin proteins was determined by Western blot analysis of each preparation using a rabbit anti-MSA antibody and using purified MSA of known concentration to generate a standard curve. Following development of the blot and exposure to film the autoradiographs were analyzed using the Gel Doc 1000 image analysis system and Molecular Analyst software (BioRad).

MSA: full-length mouse serum albumin (negative control)
inhibition of BCE proliferation (active range / effect in words) [1]: did not significantly affect | inhibition of HUVEC proliferation (active range / effect in words) [2]: did not significantly affect
